Results taken from patent US7384920B2, “Use of stilbene compounds in the manufacture of medicament for the prevention and treatment of diabetes or retrovirus-associated diseases” (priority 2001, dated 2008).
Like-named read-outs stand apart in the source and are kept apart here.

Tested on: mice
Format: in vivo
Settings: pos

Substance: 3,3′,4′,5-quadrahydroxystilbene-4′-O-β-D-glucopyranoside [Compound E1]
- MTD (mice ♀): 5625 mg/kg
- MTD (mice ♂): 4219 mg/kg
